Bioassay records as filed in PubChem.
GIV-Gai inh = blocks GIV peptide binding to rat Galpha-i3; Galpha-i3/FITC-GIV peptide fluorescence polarization, 90 min; stronger effect = lower value; scaled: aluminum fluoride 0%, vehicle 100%; P08753; hit rate 0.42% among 210,000; AID 1224905; percent of control (FP), % (test concentration not listed);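 active = replicate mean at 85% of control or lower, very high polarization wells dropped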;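 also: wells of about 15 µL received 100 nL stock; the first replicate is given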
HCMV UL50-53 inh = cytomegalovirus nuclear egress complex inhibition | HTRF UL50-UL53 interaction, normalized percent inhibition | inhibition, % (test concentration not listed) | 190,000 compounds, 0.15% hits; in the data active = inhibition above about 27%, passing the limit was not always enough
* = called active by the depositor; . = no result. A selection: hits, their analogues and other compounds. The true share with any hit is near 0.46%.

SMILES | GIV-Gai inh | HCMV UL50-53 inh
COc1ccc(C2CC(=O)C3=C(C2)Nc2ccccc2NC3c2cc([N+](=O)[O-])ccc2Cl)cc1 (centres undefined) | 106 | 41*
COc1ccc(C2CC(=O)C3=C(C2)Nc2ccccc2NC3c2ccccc2Br)cc1 (centres undefined) | 104 | -14
O=C(CN1C(=O)S/C(=C\c2ccc(N3CCOCC3)o2)C1=O)Nc1ccccc1F | -19* | -26
O=C1S/C(=C\c2ccc(N3CCOCC3)o2)C(=O)N1Cc1ccc(F)cc1 | 258 | -32
O=c1[nH]cc(NC2CCCCC2)c(=O)[nH]1 | 104 | -9
O=C1c2ccccc2-c2nc3nnnn3nc21 | . | 103*
N#Cc1nc2c(nc1C#N)-c1ccccc1C2=O | 90 | -5
COc1ccc(Oc2ncccc2NC(=O)c2ccc(OC(F)(F)F)cc2)cc1 | 107 | 0
COc1ccccc1NC(=O)Nc1ccnn1C1CCCCC1 | . | -7
COc1ccccc1NC(=O)Nc1ccnn1Cc1ccccc1 | . | 85*
COc1ccc2c(c1)c1nc(SC)n(CCO)c(=O)c1n2C | 103 | -14
CN1C(=O)CCc2cc(NC(=O)c3ccccc3)ccc21 | 102 | -25
Cc1cc(C2CCCN2S(=O)(=O)c2ccc(Cl)s2)no1 (centres undefined) | 102 | .
CC[C@@]1(O)C(=O)OCc2c1cc1n(c2=O)Cc2cc3c(CN(C)C)c(O)ccc3nc2-1 | -6.9* | -69
CCCCc1cc(=O)oc2c(CN(C)C)c(O)ccc12 | 106 | -30
O=C(CSc1nnc(Nc2ccccc2F)s1)Nc1ccc2c(c1)OCCCO2 | . | 3
CCOC(=O)c1c(-c2cccs2)csc1/N=C/c1c(O)n(C)c2ccccc12 | 44* | .
CCOC(=O)c1c(/N=C/c2c(O)n(C)c3ccccc23)sc2c1CCC2 | 111 | .
CCOC(=O)c1c(-c2cccs2)csc1NC=O | 107 | .
CCOC(=O)c1c(/N=C/c2c(O)n(C)c3ccccc23)sc(C)c1C | 52* | .
Cc1nn(-c2ccccc2)c(C)c1CCc1nn2c(CSc3ccccc3)nnc2s1 | 108 | -16
Cc1ccc(C(=O)N/C(=C/c2ccccc2F)C(=O)NCc2ccco2)cc1 | 106 | .
O=C(Nc1sc2c(c1C(=O)NCC1CCCO1)CCC2)c1cc(-c2ccc3c(c2)OCCO3)on1 (centres undefined) | 96 | -10
COc1cccc(NC(=O)c2cc3cc4c5c(c3oc2=N)CCCN5CCC4)c1 | -14* | -21
COc1cccc(NC(=O)c2cc3ccccc3oc2=O)c1 | . | -2
N=c1oc2c(Cl)cc(Cl)cc2cc1C(=O)Nc1ccc(F)cc1 | 100 | -8
Cc1ccc(NC(=O)c2cc3cc4c5c(c3oc2=N)CCCN5CCC4)cc1 | -14* | -23
Cc1noc(/C=C/c2ccco2)c1S(=O)(=O)N1CCC(C(=O)O)CC1 | 107 | .
CC(=O)Nc1cccc(N=Cc2cc(Br)ccc2O)c1 | 103 | 5
c1ccc2[nH]c(SCCN3CCCC3)nc2c1 | 103 | -23
CCOC(=O)CC(=O)CSc1nc(N)c(C#N)c(-c2cccs2)c1C#N | 110 | .
COC(=O)CSc1nc(N)c(C#N)c(-c2ccccc2)c1C#N | 103 | 33
CCOC(=O)CSc1nc(N)c(C#N)c(-c2ccc(OCC)cc2)c1C#N | 106 | 44*
CCOc1ccc(-c2c(C#N)c(N)nc(SCC(=O)c3ccccc3)c2C#N)cc1 | 102 | -11
COc1cc(-c2c(C#N)c(N)nc(SCC(N)=O)c2C#N)cc(OC)c1OC | 110 | .
N#Cc1c(N)nc(SCC(=O)c2ccc3ccccc3c2)c(C#N)c1-c1ccccc1 | 97 | 21*

The final two entries of the section before come first, to join the parts:
SMILES | GIV-Gai inh | HCMV UL50-53 inh
COc1cc(-c2c(C#N)c(N)nc(SCC(N)=O)c2C#N)cc(OC)c1OC | 110 | .
N#Cc1c(N)nc(SCC(=O)c2ccc3ccccc3c2)c(C#N)c1-c1ccccc1 | 97 | 21*
N#Cc1c(N)nc(SCC(N)=O)c(C#N)c1-c1ccc(Br)cc1 | 105 | 66*
CC(C)(C)C(=O)CSc1nc(N)c(C#N)c(-c2cccs2)c1C#N | . | 60*
CN(C)C=Nc1ccc(C(=O)/C=C/N(C)C)cc1 | . | -25
COc1cc(C(=O)N[C@H](C(=O)O)C(C)C)cc(OC)c1OC | . | -26
Cc1ccc(/C=C2\CC/C(=C\c3ccc(C)o3)C2=O)o1 | -75* | .
Cc1ccc(/C=C2/CC(C)C/C(=C\c3ccc(C)o3)C2=O)o1 (centres undefined) | 206 | -2
CCOCCCNC(=O)C1c2c(n(C)c3ccccc23)SCC(=O)N1c1cc(OC)ccc1OC (centres undefined) | 97 | -27
Clc1ccc(-n2ncc3c(N4CCN(c5ccccc5)CC4)ncnc32)cc1 | 110 | .
COc1ccccc1N1CCN(c2ncnc3c2cnn3-c2ccc(C)c(Cl)c2)CC1 | 101 | -14
Cc1ccc(C(=O)OC2=CC(=O)c3ccccc3C2=O)cc1 | 84* | 36
Cc1ccc(C(=O)OC2=C(c3ccccc3)C(=O)c3ccccc3C2=O)cc1 | 102 | .
CC(C)c1cc(C(=O)Nc2ccc(-c3nnc4n3CCCCC4)cc2)c2cnn(C(C)C)c2n1 | . | -16
CCOc1ccc(N=Cc2sc3ccccc3c2O)cc1 | -15* | -24
COc1ccccc1N=Cc1sc2ccccc2c1O | -53* | -33
COc1ccc(N=Cc2sc3ccccc3c2Cl)cc1 | . | 27
Cc1ccccc1N=Cc1sc2ccccc2c1O | 157 | -15
N#C/C(=C\c1ccc(-c2ccc(C(=O)O)cc2)o1)c1nc2ccccc2[nH]1 | -6.1* | -26
N#C/C(=C\c1ccc(-c2ccc(Cl)c(C(=O)O)c2)o1)c1nc2ccccc2[nH]1 | -58* | -76
N#C/C(=C/c1ccc(-c2ccc(C(=O)O)cc2)o1)c1ccc(Cl)cc1 | 113 | -92
Cc1ccc2nc(/C(C#N)=C/c3ccc(-c4cccc(Cl)c4)o3)[nH]c2c1 | 243 | -51
O=C(CCC(=O)NC1CCCC1)Nc1nc(-c2cc3ccccc3oc2=O)cs1 | 103 | -5
Cc1cc2nc(N3CCN(c4ccccc4)CC3)c3ccccc3n2n1 | . | -5
O=C(O)/C=C/c1ccco1 | 101 | -1
CN(C)c1ccc(/C=C/C(=O)/C=C/c2ccc3c(c2)OCO3)cc1 | -64* | .
CN(C)c1ccc(/C=C/C(=O)/C=C/c2ccco2)cc1 | 6.8* | 13
COC(=O)/C=C/c1ccc2c(c1)OCO2 | . | -17
CC1=CC(=O)C(N(C)C2CCS(=O)(=O)C2)=CC1=O (centres undefined) | . | -10
Cc1cc(C)cc(S(=O)(=O)N2CCC3(CC2)NCCN=C3NC(C)(C)C)c1 | 107 | .
COc1ccc(/C=c2/sc3nc(=O)cnn3c2=O)cc1 | 110 | .
Cc1ccc(/C=c2/sc3nc(=O)cnn3c2=O)cc1 | 92 | 72*
CC1=CS/C(=C(/C#N)C(N)=O)N1c1ccccc1 | 104 | -11
N#C/C(C(=O)c1ccccc1)=C1/SC=C(N)N1c1ccccc1 | -51* | -26
CCCCNc1ccccc1C(=O)OCc1nc2ccccc2c(=O)n1CC#N | . | -14
O=C(CN1C(=O)S/C(=C/c2ccc(N3CCCCCC3)o2)C1=O)N1CCCCCC1 | . | -25
COC(=O)C(C)N1C(=O)S/C(=C/c2ccc(N3CCCCCC3)o2)C1=O (centres undefined) | -15* | -47
CCOc1cc(C=C2C(=O)NC(=S)NC2=O)cc(Br)c1OCc1ccc(Cl)cc1 | 102 | .

Fetched by structure from the entries so far (six):
SMILES | GIV-Gai inh | HCMV UL50-53 inh
Cc1ccc(/C=c2/sc3nc(=O)cnn3c2=O)cc1 | 92 | 72*
Cc1cc(C)cc(S(=O)(=O)N2CCC3(CC2)NCCN=C3NC(C)(C)C)c1 | 107 | .
CCOc1cc(C=C2C(=O)NC(=S)NC2=O)cc(Br)c1OCc1ccc(Cl)cc1 | 102 | .
O=C(CN1C(=O)S/C(=C/c2ccc(N3CCCCCC3)o2)C1=O)N1CCCCCC1 | . | -25
COC(=O)C(C)N1C(=O)S/C(=C/c2ccc(N3CCCCCC3)o2)C1=O (centres undefined) | -15* | -47
N#C/C(C(=O)c1ccccc1)=C1/SC=C(N)N1c1ccccc1 | -51* | -26

New compounds follow.
SMILES | GIV-Gai inh | HCMV UL50-53 inh
Cc1ccc(/C=C2\SC(=O)NC2=S)o1 | 46* | -55
Cc1ccc(/C=C2/SC(=S)N(c3ccc(S(N)(=O)=O)cc3)C2=O)o1 | . | -14
Cc1ccc(-n2c(=O)[nH]c(=O)c3sc(N)nc32)cc1 | 109 | 3
CSc1ncccc1C(=O)Nc1ccccc1C | 104 | .
CSc1ncccc1C(=O)NC1(O)C(=O)c2ccccc2C1=O | 93 | 56*
